Common to all, as to assay type: functional
In assay [1] the test system is Staphylococcus aureus. The experiment in a line: Antimicrobial activity against Staphylococcus aureus ATCC 25923 assessed as reduction of bacterial growth incubated for 18 hrs by CLSI protocol based broth microdilution method.
Assay [2] has as its system Bacillus subtilis. Description: Antimicrobial activity against Bacillus subtilis ATCC 23857 assessed as reduction of bacterial growth incubated for 18 hrs by CLSI protocol based broth microdilution method.
In assay [3] the test system is Staphylococcus epidermidis. Description: Antimicrobial activity against Staphylococcus epidermidis ATCC 12228 assessed as reduction of bacterial growth incubated for 18 hrs by CLSI protocol based broth microdilution method. A general note: Dilution methods test growth across graded concentrations, often in twofold steps.
Assay [4] has as its system Escherichia coli. Description: Antimicrobial activity against Escherichia coli ATCC 25922 assessed as reduction of bacterial growth incubated for 18 hrs by CLSI protocol based broth microdilution method.
In assay [5] the test system is Pseudomonas aeruginosa. Description: Antimicrobial activity against Pseudomonas aeruginosa ATCC 27853 assessed as reduction of bacterial growth incubated for 18 hrs by CLSI protocol based broth microdilution method.

Usually MIC stands for the lowest concentration that inhibits growth of the organism.

In brackets after ≈: the same amount, converted by molar mass.

On to `CC[C@H](C)[C@H](NC(=O)CN)C(=O)NCC(=O)N[C@@H](C)C(=O)N[C@H](C(=O)N[C@@H](CC(C)C)C(=O)N[C@@H](CCCCN)C(=O)N[C@H](C(=O)N[C@@H](CC(C)C)C(=O)N[C@H](C(=O)N[C@H](C(=O)NCC(=O)N[C@@H](CC(C)C)C(=O)N1CCC[C@H]1C(=O)N[C@@H](C)C(=O)N[C@@H](CC(C)C)C(=O)N[C@H](C(=O)N[C@@H](CO)C(=O)N[C@@H](Cc1c[nH]c2ccccc12)C(=O)N[C@H](C(=O)N[C@@H](CCCCN)C(=O)N[C@@H](CCCNC(=N)N)C(=O)N[C@@H](CCCCN)C(=O)N[C@@H](CCCNC(=N)N)C(=O)N[C@@H](CCC(N)=O)C(=O)N[C@@H](CCC(N)=O)C(N)=O)[C@@H](C)CC)[C@@H](C)CC)[C@@H](C)O)[C@@H](C)O)C(C)C)C(C)C` [MELITTIN], for which the MIC turned out to be 8 µM (≈ 22.8 µg/mL) in assay [1]; 2 µM (≈ 5.69 µg/mL) in assay [2]; 4 µM (≈ 11.4 µg/mL) in assay [3]; 8 µM (≈ 22.8 µg/mL) in assay [4]; 8 µM (≈ 22.8 µg/mL) in assay [5].
